Results reported in article PMC12280126, “Potent β-lactam-based tyrosyl-DNA phosphodiesterase 1 inhibitors identified by a virtual screen” (Scientific Reports, 2025).

Amino acid sequences for entries named in this document (tags omitted).
UniProt Q9NUW8, whole entry: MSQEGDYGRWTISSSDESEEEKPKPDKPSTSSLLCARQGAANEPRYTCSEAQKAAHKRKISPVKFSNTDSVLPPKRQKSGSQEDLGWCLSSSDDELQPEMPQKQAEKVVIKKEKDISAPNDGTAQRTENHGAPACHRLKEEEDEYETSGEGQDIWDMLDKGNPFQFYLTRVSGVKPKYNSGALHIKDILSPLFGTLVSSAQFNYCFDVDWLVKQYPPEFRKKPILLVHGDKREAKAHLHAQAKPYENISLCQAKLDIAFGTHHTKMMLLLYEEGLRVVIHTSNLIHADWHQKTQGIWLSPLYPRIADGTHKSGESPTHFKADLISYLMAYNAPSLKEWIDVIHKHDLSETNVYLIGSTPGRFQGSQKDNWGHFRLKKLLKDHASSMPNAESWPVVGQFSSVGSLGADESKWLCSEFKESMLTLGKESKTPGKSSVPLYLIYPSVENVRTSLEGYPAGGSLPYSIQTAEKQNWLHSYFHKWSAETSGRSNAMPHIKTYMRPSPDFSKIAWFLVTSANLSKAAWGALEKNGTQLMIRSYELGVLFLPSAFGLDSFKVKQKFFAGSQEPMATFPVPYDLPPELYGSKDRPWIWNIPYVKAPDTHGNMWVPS

Biological target: T1, recombinant TDP1 (Homo sapiens, UniProt Q9NUW8)
T1 construct: incubated with 40 pM full-length recombinant TDP1 or TDP1 (148–608)
Assay: in vitro gel-based fluorescence TDP1 catalytic assay
Assay type: biochemical
Experimental: We subjected select virtual screen hits to evaluation of TDP1 inhibitory potencies using in vitro gel-based fluorescence TDP1 catalytic assays (Fig. 2). […] To further explore this class of compounds, we purchased from TargetMol a library of approximately 90 β-lactams as 10 mM solutions in DMSO. […] We examined TDP1 inhibitory potencies of the compounds using the in vitro gel-based fluorescence assays as previously described[21]–[24]. Briefly, a 5’-Cy5-labeled DNA substrate (N14Y, 5’-Cy5-[…]-pY-3’, 1 nM) was incubated in TDP1 reaction buffer with recombinant TDP1 or truncated TDP1(148–608) (40 pM) in the absence or presence of inhibitors for 15 min at room temperature. […] The TDP1 inhibition IC50 values were calculated based on gel images of the cleavage product (N14P, 5’-Cy5-[…]-p-3’) (Fig. 3A and Table S2).
The inhibition of TDP1 and TDP2 were conducted according to gel-based methods as previously described[21]–[24],[45]. […] The IC50 values of the TDP1 inhibitors were calculated by comparing the percentage of the cleavage product (N14P, 5´Cy5-[…]-p-3´) produced to that in the DMSO control. The IC50 values of the TDP2 inhibitors were calculated by comparing the percentage of the cleavage product (PN18, 5’-p-[…]-Cy5-3’) produced to that in the DMSO control.

## C[C@@H](O)[C@H]1C(=O)N2C(C(=O)OCOC(=O)C(C)(C)C)=C(SC3CN(C4=NCCS4)C3)[C@H](C)[C@H]12 [LC3, Tebipenem Pivoxil]
  IC50: > 1000 µM
